## Apparent affinities of Ab-14 variants for a coronavirus HR2 peptide

Source: Engelhart et al. 2022 (doi:10.1038/s41597-022-01779-4), MIT Lincoln Laboratory and A-Alpha Bio; data file from the FLAb repository.

All variants were tested on one target, the spike HR2 peptide PDVDLGDISGINAS (SARS-CoV-2).

Parent: Ab-14, a human scFv built as VH, a 15-residue (Gly4Ser)3 linker, VL. Only the CDRs of the heavy chain vary.
VH: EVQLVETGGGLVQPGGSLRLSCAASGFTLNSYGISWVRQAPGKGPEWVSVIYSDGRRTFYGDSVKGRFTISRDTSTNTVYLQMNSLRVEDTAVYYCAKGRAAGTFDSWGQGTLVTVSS
VL: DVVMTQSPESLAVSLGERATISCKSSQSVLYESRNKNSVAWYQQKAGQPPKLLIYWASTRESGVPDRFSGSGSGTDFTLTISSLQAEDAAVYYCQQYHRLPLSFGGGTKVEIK

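The library (AAYL49) carries one to three amino acid substitutions per variant, with no insertions or deletions. The assay is AlphaSeq: two haploid yeast populations carry antibody and antigen on their surface. After mating in shaken culture at 30 °C for 16 h, diploids were selected and their barcode pairs sequenced. The ratio of observed to expected reads was calibrated, replicate by replicate, on BCL2-family standards whose Kd was known from biolayer interferometry. The assay was run in three technical replicates.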

Each variant's VH is given in full.
The read-out is the apparent dissociation constant on a log10 scale (nM): the lower, the stronger.
Replicates are averaged; those with no signal do not enter the mean.
An entry "nd" has no value in the source: the pair was not observed among the diploids in that replicate. This suggests poor binding but is not conclusive.
Background: pairings of library AAYL49 with three empty control strains gave a value in 15% of cases (median 4.06, 5th percentile 2.83). Values in that range, when seen in few replicates, are hard to tell from nonspecific mating. Also given: how often the same scFv was detected with the empty control strains.
In this assay the parent's reference entry averaged 0.65; its copy inside this library read 4.11 (one replicate of three).

With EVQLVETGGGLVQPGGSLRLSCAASGFTLNSYGISWVRQAPGKGPEWVSVIYSDGRRTFPGDSVKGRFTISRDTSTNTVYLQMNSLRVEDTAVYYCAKHTAAGTFDSWGQGTLVTVSS the result was nd, nd, 5.08 (controls 1 of 9).
With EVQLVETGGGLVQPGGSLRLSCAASGLTLNSYSISWVRQAPGKGPEWVSVIYSDGRRTFYGDSVKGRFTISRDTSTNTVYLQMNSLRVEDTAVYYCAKGRAAMTFDSWGQGTLVTVSS the result was nd, nd, nd (controls 1 of 9).
With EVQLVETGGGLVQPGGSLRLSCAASGFTLNSYGISWVRQAPGKGPEWVSVIYSDGRRTFWGDSVKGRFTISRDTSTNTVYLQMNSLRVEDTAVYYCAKGRKAGTVDSWGQGTLVTVSS the result was 3.59, nd, nd (controls 1 of 9).
With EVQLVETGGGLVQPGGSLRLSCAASGFTLNSYGISWVRQAPGKGPEWVSVIYSDLSRTFYGDSVKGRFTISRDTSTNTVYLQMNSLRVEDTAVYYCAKGSAAGTFDSWGQGTLVTVSS the result was nd, nd, 4.94 (controls 2 of 9).
With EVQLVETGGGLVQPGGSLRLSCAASGFTLNSYGILWVRQAPGKGPEWVSVIYADGRRTFYGDSVKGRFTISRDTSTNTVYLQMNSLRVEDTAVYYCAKGRAAGTFDGWGQGTLVTVSS the result was nd, 3.45, nd (controls 0 of 9).
With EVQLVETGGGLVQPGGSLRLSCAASGFTLNSYGISWVRQAPGKGPEWVSVIYSDGRRTTYGDSVKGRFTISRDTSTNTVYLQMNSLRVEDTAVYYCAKGRAAGVFDSWGQGTLVTVSS the result was nd, nd, nd (controls 0 of 9).
With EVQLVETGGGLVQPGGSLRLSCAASGFDQNSYGISWVRQAPGKGPEWVSVIYSRGRRTFYGDSVKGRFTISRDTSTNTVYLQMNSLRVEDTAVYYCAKGRAAGTFDSWGQGTLVTVSS the result was nd, nd, 5.51 (controls 2 of 9).
With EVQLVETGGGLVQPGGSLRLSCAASGFTLNRYGISWVRQAPGKGPEWVSVIYSCRRRTFYGDSVKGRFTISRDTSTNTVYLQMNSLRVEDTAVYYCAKGRAAGTFDSWGQGTLVTVSS the result was nd, nd, nd (controls 0 of 9).
With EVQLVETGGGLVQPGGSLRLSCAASGFTLNSYGISWVRQAPGKGPEWVSVIYADGRVTFYGDSVLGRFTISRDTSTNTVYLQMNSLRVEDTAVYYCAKGRAAGTFDSWGQGTLVTVSS the result was 1.77, 2.28, 2.54 (mean 2.19; controls 0 of 9).
With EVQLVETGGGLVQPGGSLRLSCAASGFTLNSYMISWVRQAPGKGPEWVSVIWSDGRRTFYGDSVKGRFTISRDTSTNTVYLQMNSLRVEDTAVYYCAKGIAAGTFDSWGQGTLVTVSS the result was nd, nd, 4.03 (controls 3 of 9).
With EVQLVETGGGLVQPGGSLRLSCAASGFTLNSYGISWVRQAPGKGPEWVSVIYSFGWRTFYGDSVMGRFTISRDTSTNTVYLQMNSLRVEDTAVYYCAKGRAAGTFDSWGQGTLVTVSS the result was nd, nd, nd (controls 0 of 9).
With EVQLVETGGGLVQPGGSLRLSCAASGFTLNSYGISWVRQAPGKGPEWVSVIYSDGERTFYGDSVKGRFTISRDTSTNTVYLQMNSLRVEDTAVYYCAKGRAAGTFDSWGQGTLVTVSS the result was 2.51, 2.50, 1.53 (mean 2.18; controls 1 of 9).
With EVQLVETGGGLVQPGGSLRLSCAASGTTLNSMGISWVRQAPGKGPEWVSVIYYDGRRTFYGDSVKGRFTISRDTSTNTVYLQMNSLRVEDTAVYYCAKGRAAGTFDSWGQGTLVTVSS the result was nd, nd, nd (controls 1 of 9).
With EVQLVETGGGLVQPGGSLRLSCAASGFTLNSYGISWVRQAPGKGPEWVSVIKNDGRRTFYGDSVKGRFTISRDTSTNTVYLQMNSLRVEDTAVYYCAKGRAAGTFDGWGQGTLVTVSS the result was nd, nd, nd (controls 1 of 9).
With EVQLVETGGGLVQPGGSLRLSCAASGFTDNSYGISWVRQAPGKGPEWVSAIFSDGRRTFYGDSVKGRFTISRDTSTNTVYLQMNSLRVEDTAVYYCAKGRAAGTFDSWGQGTLVTVSS the result was nd, nd, nd (controls 2 of 9).
With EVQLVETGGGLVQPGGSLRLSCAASGFTANSYGISWVRQAPGKGPEWVSVIYSDGNRSFYGDSVKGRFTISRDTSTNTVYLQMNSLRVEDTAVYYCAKGRAAGTFDSWGQGTLVTVSS the result was nd, nd, nd (controls 1 of 9).
With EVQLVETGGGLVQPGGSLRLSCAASGFTLNSAGISWVRQAPGKGPEWVSVILSDGRRTFYGDSVKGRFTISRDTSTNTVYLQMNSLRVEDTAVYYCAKGRAAGTFDSWGQGTLVTVSS the result was 3.96, nd, nd (controls 2 of 9).
With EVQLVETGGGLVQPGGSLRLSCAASGFTLNSYGISWVRQAPGKGPEWVSPIYSDGYRTFYYDSVKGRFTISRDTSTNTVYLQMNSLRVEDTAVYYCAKGRAAGTFDSWGQGTLVTVSS the result was nd, 3.71, nd (controls 1 of 9).
With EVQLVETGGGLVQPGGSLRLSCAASGFTLNSHGISWVRQAPGKGPEWVSVIYSDGRRTFYGDSVKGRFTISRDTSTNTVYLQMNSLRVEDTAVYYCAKGRAAGTFQSWGQGTLVTVSS the result was nd, nd, nd (controls 0 of 9).
With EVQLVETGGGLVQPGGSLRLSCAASGFFLNSYGISWVRQAPGKGPEWVSVIYSDGRRTFYPDSVKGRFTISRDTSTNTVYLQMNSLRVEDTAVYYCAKGRACGTFDSWGQGTLVTVSS the result was 3.73, 3.03, 4.73 (mean 3.83; controls 6 of 9).
With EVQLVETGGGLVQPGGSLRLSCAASGFTLNSYGISWVRQAPGKGPEWVSVIYSDGRYTFYGDSVKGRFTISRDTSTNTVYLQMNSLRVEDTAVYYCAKGRANGTEDSWGQGTLVTVSS the result was nd, nd, nd (controls 1 of 9).
With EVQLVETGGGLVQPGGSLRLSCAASGFTLNSYGISWVRQAPGKGPEWVSVIYSDGERTFYGMSVKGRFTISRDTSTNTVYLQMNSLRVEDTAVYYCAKGRAAGTFDMWGQGTLVTVSS the result was nd, nd, nd (controls 0 of 9).

For reference, 3 entries of the list once more:

| VH | replicates, log10 nM | mean, log10 nM | signal with controls |
|---|---|---|---|
| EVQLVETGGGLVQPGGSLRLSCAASGTTLNSMGISWVRQAPGKGPEWVSVIYYDGRRTFYGDSVKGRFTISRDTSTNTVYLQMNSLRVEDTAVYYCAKGRAAGTFDSWGQGTLVTVSS | nd, nd, nd | nd | 1/9 |
| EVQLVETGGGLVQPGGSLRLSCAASGFTLNSYGISWVRQAPGKGPEWVSVIYSFGWRTFYGDSVMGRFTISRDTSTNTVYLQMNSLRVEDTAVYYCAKGRAAGTFDSWGQGTLVTVSS | nd, nd, nd | nd | 0/9 |
| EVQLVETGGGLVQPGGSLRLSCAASGFTLNSYMISWVRQAPGKGPEWVSVIWSDGRRTFYGDSVKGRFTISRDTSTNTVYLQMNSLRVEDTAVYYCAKGIAAGTFDSWGQGTLVTVSS | nd, nd, 4.03 | 4.03 | 3/9 |